From patent US20080152714A1, “Pharmaceutical Formulations” (priority 2005, published 2008)

Experiment: Solubility of fenofibric acid salts in water at 25° C.
Assay type: physicochemical
Procedure: Solubility Determination: Solubility values of fenofibric acid salts in water were determined at 25° C. The salts were weighed into glass vials and water was added. The suspensions were rotated from end to end for about 2 days in a 25° C. water bath. The pH of the suspensions was measured. The residual solid was then removed via filtration through a 0.45 μm PTFE membrane filter. The resulting saturated solution was diluted appropriately into the HPLC mobile phase, and analyzed by the HPLC assay described below (Table 3). The powder x-ray diffraction pattern of the collected residual solid was recorded at the end of experiment.

Calcium showed a Solubility of 360 µg/mL.
